# Measured values as given in PubChem BioAssay (NCI).
# Only a part is listed here, and it is no random draw.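 Values shown are percent growth following 48 h exposure of cells in 96-well plates to a single concentration of compound; below 10 was considered active.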 The source made the active and inactive calls.
# Test system: MDA-MB-468 breast
# Assay: NCI-60 one-dose screen, 48 h (100 = growth as untreated, 0 = no growth, -100 = all killed)
# Settings: 10 µM unless noted
row,SMILES,growth
1,Nc1cccc2ccc([As](=O)(O)O)cc12,inactive: 94%
2,S=C(Nc1ccccc1)N(CCCl)CCCl,inactive: 106%
3,Nc1ccc(N(CCCl)CCCl)cc1,inactive: 54.8%
4,O=P1(N(CCCl)CCCl)OCCC2CCCCN21 (centres undefined),inactive: 116%
5,O=P(O)(O)F,inactive: 108%
6,Cc1ccc(C)c(C(=O)N(CCCl)CCCl)c1,inactive: 99.2%
7,O=P1(N(CCCl)CCCl)OCCCS1 (centres undefined),inactive: 104%
8,ClCCN1CCn2cnc3ncnc-3c21,inactive: 112%
9,Clc1ccc(P(Cl)Cl)cc1,inactive: 109%
10,[N-]=[N+]=NC(=O)c1cccc([N+](=O)[O-])c1,inactive: 37.8%
11,ClCCNC(Cc1ccccc1)c1ccccc1 (centres undefined),inactive: 101%
12,CN(C)P(=O)(Nc1ccccn1)N(C)C,inactive: 103%
13,O=C(N(CCCl)CCCl)C(Cl)(Cl)Cl,inactive: 97.6%
14,CC1(C)NC(C)(C)C(Br)C(=O)C1Br (centres undefined),inactive: 110%
15,CCOC(=O)CCNCCSP(=O)(O)O,inactive: 99%
16,O=C(CNc1ccc([N+](=O)[O-])c([N+](=O)[O-])c1)n1cnc2ccc([N+](=O)[O-])cc21,inactive: 110%
17,O=[As]c1ccc(S(=O)(=O)Nc2ccccc2)cc1 (centres undefined),active: -40.7%

row,SMILES,growth
1,CCCCCCCNP(=S)(Cl)Cl,inactive: 109%
2,C[As](=O)(O)c1cccc(C(=O)O)c1,inactive: 97.1%
3,CCN(CCCl)c1ccc(CCC(=O)O)cc1,inactive: 104%
4,Cc1ccc(S(=O)(=O)CN(CCCl)CCCl)cc1,inactive: 103%
5,CCN(CCI)Cc1cccc2ccccc12,inactive: 105%
6,ClP1(Cl)=NP(Cl)(Cl)=NP(c2ccccc2)(c2ccccc2)=N1,inactive: 111%
7,COc1cccc(OC)c1N(CCCl)CCCl,inactive: 107%
8,COC1OC(CNCCCl)C2OC(C)(C)OC12 (centres undefined),inactive: 96.4%
9,O=[As](O)(O)c1ccc(I)cc1,inactive: 109%
10,NCCc1ccc(N(CCCl)CCCl)cc1,inactive: 10.1%
11,O=[As](O)(c1ccc(Cl)cc1)C1CCCCC1O (centres undefined),inactive: 84.7%
12,O=C(Nc1ccc([N+](=O)[O-])cc1)N(CCBr)CCBr,inactive: 103%
13,CC(C)c1nc(Nc2ccccc2)n(P(=O)(N(C)C)N(C)C)n1,inactive: 112%
14,COc1ccc(C2N=C(NN=C(CCl)CCl)SP2(=O)Nc2ncccn2)c(OC)c1 (centres undefined),inactive: 92.9% [100 µM]
15,CCOC(=O)c1sc2ncnc(NCCCl)c2c1C,inactive: 91.1%
16,NC(=O)Nc1ccc([As](=O)(O)O)cc1,inactive: 109%
17,CCOP(=S)(OCC)SCCCl,inactive: 108%
